This is an account of results in patent publication US12187719B2, “Proteolysis targeting chimera (PROTACS) as degraders of SMARCA2 and /or SMARCA4” (Boehringer Ingelheim International GmbH, priority 2018, dated 2025).

Sequences of proteins named here, by UniProt entry; tags and fusion partners are left off.
UniProt P51532, whole entry: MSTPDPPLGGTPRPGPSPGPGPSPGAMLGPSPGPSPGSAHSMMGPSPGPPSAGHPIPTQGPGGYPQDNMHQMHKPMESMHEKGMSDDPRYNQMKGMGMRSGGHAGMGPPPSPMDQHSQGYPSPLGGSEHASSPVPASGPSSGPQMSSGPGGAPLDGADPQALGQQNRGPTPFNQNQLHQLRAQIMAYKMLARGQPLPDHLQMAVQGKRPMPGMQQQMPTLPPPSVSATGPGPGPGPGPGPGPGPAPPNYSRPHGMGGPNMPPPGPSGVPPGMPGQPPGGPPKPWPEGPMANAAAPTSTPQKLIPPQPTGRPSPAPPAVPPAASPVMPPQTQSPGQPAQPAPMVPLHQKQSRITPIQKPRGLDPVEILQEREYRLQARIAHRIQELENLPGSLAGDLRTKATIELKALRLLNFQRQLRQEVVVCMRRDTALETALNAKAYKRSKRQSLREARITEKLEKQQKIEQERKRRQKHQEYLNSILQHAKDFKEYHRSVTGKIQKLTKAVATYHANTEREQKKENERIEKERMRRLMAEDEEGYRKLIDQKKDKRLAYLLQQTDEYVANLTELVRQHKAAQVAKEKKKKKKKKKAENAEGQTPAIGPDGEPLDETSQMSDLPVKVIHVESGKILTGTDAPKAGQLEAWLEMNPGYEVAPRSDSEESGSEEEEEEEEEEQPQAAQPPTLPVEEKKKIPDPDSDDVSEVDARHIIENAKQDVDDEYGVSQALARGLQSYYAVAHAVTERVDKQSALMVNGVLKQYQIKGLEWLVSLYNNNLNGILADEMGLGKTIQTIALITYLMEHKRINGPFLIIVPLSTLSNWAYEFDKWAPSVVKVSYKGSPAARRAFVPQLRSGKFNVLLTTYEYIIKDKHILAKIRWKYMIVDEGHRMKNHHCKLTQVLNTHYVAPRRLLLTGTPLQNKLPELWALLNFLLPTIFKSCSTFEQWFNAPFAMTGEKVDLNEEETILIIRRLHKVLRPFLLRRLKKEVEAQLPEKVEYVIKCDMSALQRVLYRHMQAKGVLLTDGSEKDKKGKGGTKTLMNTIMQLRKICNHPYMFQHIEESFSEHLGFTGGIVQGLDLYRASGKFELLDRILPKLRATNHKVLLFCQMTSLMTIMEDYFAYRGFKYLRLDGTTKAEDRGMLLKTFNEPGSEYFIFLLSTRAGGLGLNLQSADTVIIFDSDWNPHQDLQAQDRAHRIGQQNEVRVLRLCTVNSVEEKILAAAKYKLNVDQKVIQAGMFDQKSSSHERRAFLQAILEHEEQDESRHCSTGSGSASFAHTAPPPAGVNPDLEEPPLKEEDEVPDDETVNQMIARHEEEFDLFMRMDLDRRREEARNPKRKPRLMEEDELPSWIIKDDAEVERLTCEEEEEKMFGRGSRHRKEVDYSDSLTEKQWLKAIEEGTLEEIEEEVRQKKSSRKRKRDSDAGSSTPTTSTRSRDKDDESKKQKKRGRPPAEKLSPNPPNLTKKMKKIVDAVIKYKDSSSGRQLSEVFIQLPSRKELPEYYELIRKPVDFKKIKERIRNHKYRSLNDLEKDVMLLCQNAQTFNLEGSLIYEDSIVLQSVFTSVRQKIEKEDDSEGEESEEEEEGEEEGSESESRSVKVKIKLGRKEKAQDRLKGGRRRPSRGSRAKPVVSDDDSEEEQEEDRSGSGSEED

The target of the experiment is T1, SMARCA4 (Homo sapiens, UniProt P51532).
T1 construct: endogenous in cells; host or cells: A549 (NSCLC) cells with SMARCA4 mutation corrected to wild type
The experiment can be described thus: Protein degradation assay in A549 cells, SMARCA4 levels by WES capillary electrophoresis. Particulars: A549 (NSCLC) cells with SMARCA4 mutation corrected to wild type; 18 h incubation; concentration at which half maximal degradation is achieved; normalised to GAPDH. Type of experiment: cell-based. Here is the method: For the protein degradation assay, A549 (NSCLC) cells are used in which the inactivating SMARCA4 mutation has been corrected to wild type, such that the cells express both SMARCA2 and SMARCA4. 35000 cells in F12K Medium +10% FBS (100 μL/well) are seeded in a Greiner 96 well F-bottom plate and incubated at 37° C. overnight. Compounds are added from DMSO stock solution using ECHO Access™ workstation or HP D300 Digital Dispenser and cells are incubated at 37° C. for 18 h. Medium is removed, cells are washed with PBS, PBS is removed and 30 μL cold Lysis Buffer (1% Triton, 350 mM KCl, 10 mM Tris, Halt Phosphatase-Protease Inhibitors, 10 mM DTT, Benzonase 0.5 μL/mL) is added to each well. Cells are lysed for 20 min at 4° C. on a bioshake at 800 rpm before insoluble debris is pelleted by centrifugation for 20 min at 4000 rpm at 4° C. The supernatant is transferred to a fresh PCR plate. SMARCA2 levels are determined on a WES capillary electrophoresis instrument (Proteinsimple) using rabbit anti-SMARCA2 antibody (1:25, Sigma #HPA029981), SMARCA4 antibody (CellSignaling #49360, 1:25), PBRM1 antibody (Bethyl #A301-591A-M, 1:40) and anti-GAPDH antibody (1:100, Abcam #ab9485) for normalization.
The compounds 1-1 to 1-18 according to the invention have been tested in the above described assay. […]

As usually defined, the DC50 is the midpoint of the concentration-degradation curve. A high value points to degradation only at high concentration.

The compound `Cc1ncsc1-c1ccc(CNC(=O)[C@@H]2C[C@@H](O)CN2C(=O)[C@@H](NC(=O)C2(F)CC2)C(C)(C)C)c(OCCOCCOCCN2CCN(c3cc(-c4ccccc4O)nnc3N)CC2)c1` [Compound I-5] displayed a DC50 of 1.93 µM.
